Results on 1 molecule are retold here after publication PMC3770802 (Cytokine, 2013).

The test addresses T1, IFN-αR1/StFP (human, UniProt P17181 28-557).
T1 sequence (looked up): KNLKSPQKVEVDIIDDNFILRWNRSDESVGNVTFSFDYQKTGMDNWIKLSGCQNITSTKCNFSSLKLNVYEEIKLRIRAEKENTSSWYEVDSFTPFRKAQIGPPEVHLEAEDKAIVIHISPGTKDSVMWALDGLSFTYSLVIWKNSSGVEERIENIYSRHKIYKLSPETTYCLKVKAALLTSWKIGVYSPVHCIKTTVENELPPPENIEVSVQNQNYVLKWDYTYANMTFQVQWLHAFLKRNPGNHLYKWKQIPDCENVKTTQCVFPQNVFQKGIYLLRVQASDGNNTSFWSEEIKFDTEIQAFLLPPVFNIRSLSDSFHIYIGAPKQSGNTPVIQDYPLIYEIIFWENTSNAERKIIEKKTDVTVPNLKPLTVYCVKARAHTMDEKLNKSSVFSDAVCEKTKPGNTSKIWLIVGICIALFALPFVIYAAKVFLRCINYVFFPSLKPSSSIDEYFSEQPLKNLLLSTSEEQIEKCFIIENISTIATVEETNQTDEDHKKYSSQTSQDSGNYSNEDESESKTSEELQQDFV
Briefly: FRET or BRET. Background: Bioluminescence resonance energy transfer reports proximity on the nanometre scale.

B1: Jak1/CiFP (enzyme, UniProt P23458 1-1154, looked up)
chain: MQYLNIKEDCNAMAFCAKMRSSKKTEVNLEAPEPGVEVIFYLSDREPLRLGSGEYTAEELCIRAAQACRISPLCHNLFALYDENTKLWYAPNRTITVDDKMSLRLHYRMRFYFTNWHGTNDNEQSVWRHSPKKQKNGYEKKKIPDATPLLDASSLEYLFAQGQYDLVKCLAPIRDPKTEQDGHDIENECLGMAVLAISHYAMMKKMQLPELPKDISYKRYIPETLNKSIRQRNLLTRMRINNVFKDFLKEFNNKTICDSSVSTHDLKVKYLATLETLTKHYGAEIFETSMLLISSENEMNWFHSNDGGNVLYYEVMVTGNLGIQWRHKPNVVSVEKEKNKLKRKKLENKHKKDEEKNKIREEWNNFSYFPEITHIVIKESVVSINKQDNKKMELKLSSHEEALSFVSLVDGYFRLTADAHHYLCTDVAPPLIVHNIQNGCHGPICTEYAINKLRQEGSEEGMYVLRWSCTDFDNILMTVTCFEKSEQVQGAQKQFKNFQIEVQKGRYSLHGSDRSFPSLGDLMSHLKKQILRTDNISFMLKRCCQPKPREISNLLVATKKAQEWQPVYPMSQLSFDRILKKDLVQGEHLGRGTRTHIYSGTLMDYKDDEGTSEEKKIKVILKVLDPSHRDISLAFFEAASMMRQVSHKHIVYLYGVCVRDVENIMVEEFVEGGPLDLFMHRKSDVLTTPWKFKVAKQLASALSYLEDKDLVHGNVCTKNLLLAREGIDSECGPFIKLSDPGIPITVLSRQECIERIPWIAPECVEDSKNLSVAADKWSFGTTLWEICYNGEIPLKDKTLIEKERFYESRCRPVTPSCKELADLMTRCMNYDPNQRPFFRAIMRDINKLEEQNPDIVSEKKPATEVDPTHFEKRFLKRIRDLGEGHFGKVELCRYDPEGDNTGEQVAVKSLKPESGGNHIADLKKEIEILRNLYHENIVKYKGICTEDGGNGIKLIMEFLPSGSLKEYLPKNKNKINLKQQLKYAVQICKGMDYLGSRQYVHRDLAARNVLVESEHQVKIGDFGLTKAIETDKEYYTVKDDRDSPVFWYAPECLMQSKFYIASDVWSFGVTLHELLTYCDSDSSPMALFLKMIGPTHGQMTVTRLVNTLKEGKRLPCPPNCPDEVYQLMRKCWEFQPSNRTSFQNLIEGFEALLK
On to B1, for which the “EC50* (relative)” value turned out to be 300 pairs/cell and the “EC50* (relative), rarely seen” value was 30 pairs/cell.
